Apparent affinities of Ab-14 variants for a coronavirus HR2 peptide

The measurements come from Engelhart et al. 2022 (doi:10.1038/s41597-022-01779-4) through the FLAb antibody collection.

All variants were tested on one target, the spike HR2 peptide PDVDLGDISGINAS (SARS-CoV-2).

Ab-14 is the parent antibody, in scFv form: VH, then the linker GGGGSGGGGSGGGGS, then VL. The heavy chain is unchanged in all variants.
VH: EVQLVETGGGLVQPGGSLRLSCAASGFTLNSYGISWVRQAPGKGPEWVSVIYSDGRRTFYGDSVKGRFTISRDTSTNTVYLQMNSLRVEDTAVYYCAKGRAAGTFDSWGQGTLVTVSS
VL: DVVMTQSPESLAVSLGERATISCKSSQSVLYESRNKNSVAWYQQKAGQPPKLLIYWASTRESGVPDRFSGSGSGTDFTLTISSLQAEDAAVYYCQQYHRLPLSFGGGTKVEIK

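In library AAYL50, one, two or three CDR residues were substituted; doubles and triples were drawn at random. The assay is AlphaSeq: two haploid yeast populations carry antibody and antigen on their surface. After mating in shaken culture at 30 °C for 16 h, diploids were selected and their barcode pairs sequenced. A regression on co-assayed BCL2-family reference pairs converts the normalised counts of each replicate to an apparent Kd. The assay was run in three technical replicates.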

Changes read parent residue, position, new residue, counted from the first residue of the VL shown. Every variant below is changed at W56 of the VL (sequential numbering). Affinities are written as log10 Kd with Kd in nM; a lower number is a better binder. Replicates are averaged; those with no signal do not enter the mean. Where no diploid with the target was found in any replicate, the entry reads "nd": below detection, most likely a poor binder, though not proof of it. Empty control strains, which show no peptide, gave a signal in 18% of pairings with library AAYL50; the median was 4.19 and 95% of these signals were weaker than 2.99. No background was subtracted.

| changes | mean, log10 nM | replicates with signal |
|---|---|---|
| A40K/W56P/E61K | nd | 0 of 3 |
| R34N/V39Q/W56G | 2.01 | 3 of 3 |
| N35V/V39L/W56T | 2.56 | 3 of 3 |
| V39H/W56C/P101F | 3.43 | 1 of 3 |
| K36Y/W56H | -0.01 | 3 of 3 |
| W56E/Q95N/S103N | 3.95 | 1 of 3 |
| N35E/W56D/L102T | 0.04 | 3 of 3 |
| L30C/W56F/Q95F | nd | 0 of 3 |
| W56F/R60M | 5.38 | 1 of 3 |
| W56V/T59A/R60C | 5.12 | 1 of 3 |
| S33T/W56K/S58L | 2.26 | 3 of 3 |
| N37C/W56L/S103D | 4.72 | 2 of 3 |
| E32D/K36T/W56G | 5.00 | 3 of 3 |
| W56C/R60N | 4.23 | 2 of 3 |
| S28K/W56P/Q96W | 2.99 | 1 of 3 |
| N35D/W56V/L100Y | 4.47 | 1 of 3 |
| S26P/W56E | -0.02 | 3 of 3 |
| S26L/R34H/W56K | nd | 0 of 3 |
| Y31H/W56Q/L102E | 1.05 | 3 of 3 |
| S33W/W56A/S103G | 0.41 | 3 of 3 |
| S26K/V39A/W56R | 2.73 | 3 of 3 |
| R34S/W56Y | 0.33 | 3 of 3 |
| S28M/W56I/L100N | nd | 0 of 3 |
| W56P/S62G/S103A | nd | 0 of 3 |
| W56C/E61Q/P101Q | 1.84 | 3 of 3 |
| W56D/H98N | -0.26 | 3 of 3 |
| Q27V/A40G/W56E | 1.48 | 3 of 3 |
| E32G/N37G/W56N | 0.87 | 3 of 3 |
| K36I/W56F/L100A | nd | 0 of 3 |
| W56G/T59H/Q95Y | 0.26 | 3 of 3 |
| W56V/R99F/L102S | 2.72 | 3 of 3 |
| N35G/W56C/Y97N | 4.40 | 2 of 3 |
| W56C/S58T/T59W | 2.32 | 3 of 3 |
| R34W/W56S/Y97Q | 5.00 | 1 of 3 |
| W56F/Q95P/S103L | nd | 0 of 3 |
| Y31H/V39D/W56Q | nd | 0 of 3 |
| W56V/L100Q | nd | 0 of 3 |
| W56Y/Q95I/R99E | nd | 0 of 3 |
| W56Y/E61F | 1.14 | 3 of 3 |
| K36C/W56K/T59W | 1.07 | 3 of 3 |
| S28W/W56H/R60I | nd | 0 of 3 |
| W56R/R60E/Q96H | nd | 0 of 3 |
| W56R/A57H/S62W | 4.71 | 3 of 3 |
| W56R/Q95E/L102E | 1.17 | 3 of 3 |
| L30M/N35E/W56H | 0.40 | 3 of 3 |
| S26V/W56S/T59K | 0.22 | 3 of 3 |
| Y31P/N37V/W56S | 0.34 | 3 of 3 |
| Y31I/W56K/A57P | nd | 0 of 3 |
| A40G/W56L/Y97S | 4.24 | 1 of 3 |
| W56F/L100K/P101T | 1.29 | 3 of 3 |
| W56F/Q96L | 2.60 | 3 of 3 |

Excerpt, the first 5 entries:

| changes | mean, log10 nM | replicates with signal |
|---|---|---|
| A40K/W56P/E61K | nd | 0 of 3 |
| R34N/V39Q/W56G | 2.01 | 3 of 3 |
| N35V/V39L/W56T | 2.56 | 3 of 3 |
| V39H/W56C/P101F | 3.43 | 1 of 3 |
| K36Y/W56H | -0.01 | 3 of 3 |